Active and inactive are the calls of the source. No cut-off for these calls is given here.
What was measured:
[1] = target: T1, Fibrinogen C domain-containing protein 1 (Homo sapiens) (UniProt Q8N539); assay: Binding affinity to V5-His tagged FIBCD1 ecto-domain (54 to 461 residues) (unknown origin) assessed as reduction in binding between FIBCD1 and acetylated BSA at 50 mM by ELISA relative to control
T1 sequence (whole entry): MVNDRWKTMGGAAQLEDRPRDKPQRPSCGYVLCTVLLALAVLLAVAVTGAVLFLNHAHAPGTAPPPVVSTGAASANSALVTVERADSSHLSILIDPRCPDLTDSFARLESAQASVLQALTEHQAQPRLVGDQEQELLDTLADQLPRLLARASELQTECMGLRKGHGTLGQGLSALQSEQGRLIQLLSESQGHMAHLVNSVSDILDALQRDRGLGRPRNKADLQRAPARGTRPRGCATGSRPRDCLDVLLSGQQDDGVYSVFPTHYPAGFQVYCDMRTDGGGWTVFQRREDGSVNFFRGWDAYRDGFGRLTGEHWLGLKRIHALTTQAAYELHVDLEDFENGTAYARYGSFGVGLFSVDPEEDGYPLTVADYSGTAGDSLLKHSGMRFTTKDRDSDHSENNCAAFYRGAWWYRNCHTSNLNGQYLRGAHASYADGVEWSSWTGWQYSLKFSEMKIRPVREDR

[2] = target: T1, Fibrinogen C domain-containing protein 1 (Homo sapiens); assay: Binding affinity to V5-His tagged FIBCD1 ecto-domain (54 to 461 residues) (unknown origin) expressed in HEK293 cells assessed as reduction in binding between FIBCD1 and acetylated BSA by ELISA; type: cell-based

| Structure (SMILES) | inhibition [1] [%] | I50 [2] |
| --- | --- | --- |
| N[C@H]1C(O)O[C@H](CO)[C@H](O)[C@@H]1O (stereo partly drawn) | < 50 | inactive |
| C[C@H](N)C(=O)O | < 50 | inactive |
| N[C@@H]1C(O)O[C@H](CO)[C@@H](O)[C@@H]1O (stereo partly drawn) | < 50 | inactive |
| N[C@H]1C(O)O[C@H](CO)[C@@H](O)[C@@H]1O (stereo partly drawn) | < 50 | inactive |

Source: ChEMBL document CHEMBL4419165, “Fibcd1 for the prevention and treatment of diseases” (2014)
